Test results from article PMC7970304, “The Effects of Apelin and Elabela Ligands on Apelin Receptor Distinct Signaling Profiles” (Frontiers in Pharmacology, 2021).

By UniProt entry, the sequences of proteins in these tests, tags left out. Where a name states a change or a piece, a line headed by the entry shows the natural chain unless it says otherwise.
UniProt P35414: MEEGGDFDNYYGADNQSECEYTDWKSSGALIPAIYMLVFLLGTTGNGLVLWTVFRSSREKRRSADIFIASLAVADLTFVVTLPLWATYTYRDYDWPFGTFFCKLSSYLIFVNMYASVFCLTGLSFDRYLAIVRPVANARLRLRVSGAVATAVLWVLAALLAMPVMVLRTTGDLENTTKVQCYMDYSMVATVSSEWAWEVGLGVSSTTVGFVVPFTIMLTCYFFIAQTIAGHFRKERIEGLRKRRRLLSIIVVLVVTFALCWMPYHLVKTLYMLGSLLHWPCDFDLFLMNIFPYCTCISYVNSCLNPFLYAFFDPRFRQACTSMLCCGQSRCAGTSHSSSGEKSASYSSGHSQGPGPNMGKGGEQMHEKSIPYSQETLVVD

Legend:
[1] = target: APJ-Renilla luciferase (Rluc) (UniProt P35414)
APJ-Venus = APJ-Venus (UniProt P35414)

Elabela-21 (from UniProt P0DMC3 23-54) (peptide)
LogEC50 of the ligand-induced recruitment of GRK2 to APJ (BRET between APJ-Rluc and GRK2-GFP2, HEK293 cells) [1]: -7.47 | LogEC50 of the ligand-induced recruitment of GRK5 to APJ (BRET between APJ-Rluc and GRK5-GFP2, HEK293 cells) [1]: -7.23 | LogEC50 of the ligand-induced interaction of APJ with β-arrestin 1 (BRET between APJ-Venus and β-arrestin 1-Rluc, HEK293 cells) (APJ-Venus): -7.18 | LogEC50 of the ligand-induced interaction of APJ with β-arrestin 2 (BRET between APJ-Venus and β-arrestin2-Rluc, HEK293 cells) (APJ-Venus): -7.17
